The values below come from publication PMC9394474 (Viruses, 2022).

One assay addresses human hisTRIM7-PRYSPRY (Homo sapiens, UniProt Q9C029). As to the kind of experiment: ITC binding to human TRIM7 PRYSPRY (wild type). The conditions noted are these: ITC.
For a further assay, the target named is T1, hisMBP-TRIM7-CC-PRYSPRY (Homo sapiens, UniProt Q9C029).
T1 construct: made in house; host or cells: E. coli C41
The experiment in a line: ITC binding to dimeric MBP-TRIM7-CC-PRYSPRY. The conditions noted are these: 25 °C.

Assay [1] has as its target mTrim7-PRYPSRY (Mouse TRIM7). The experiment in a line: ITC binding to mouse TRIM7 PRYSPRY. The conditions noted are these: 15 °C, 50 mM phosphate pH 6.5, 1 mM DTT, TRIM7 500 µM, ligand 100 µM.
Setting [2] is: 15 °C, 50 mM phosphate pH 6.5, 1 mM DTT.

B1: hGYG1-GN1: hexahistidine-tagged GYG1 construct comprising the full-length human GN1 isoform of GYG1 (protein)
chain: MTDQAFVTLTTNDAYAKGALVLGSSLKQHRTTRRLVVLATPQVSDSMRKVLETVFDEVIMVDVLDSGDSAHLTLMKRPELGVTLTKLHCWSLTQYSKCVFMDADTLVLANIDDLFDREELSAAPDPGWPDCFNSGVFVYQPSVETYNQLLHLASEQGSFDGGDQGILNTFFSSWATTDIRKHLPFIYNLSSISIYSYLPAFKVFGASAKVVHFLGRVKPWNYTYDPKTKSVKSEAHDPNMTHPEFLILWWNIFTTNVLPLLQQFGLVKDTCSYVNVEDVSGAISHLSLGEIPAMAQPFVSSEERKERWEQGQADYMGADSFDNIKRKLDTYLQ
In the case of B1, the DH with human hisTRIM7-PRYSPRY (25 °C, TRIM7 20 µM) is -27 ± 3.3 kcal/mol; with hisMBP-TRIM7-CC-PRYSPRY, -23.8 ± 0.991 kcal/mol. The “N (stoichiometry)” value is on record as 0.42±0.03 with human hisTRIM7-PRYSPRY (25 °C, for hGYG1-GN1 (**) concentration of GYG1 dimer used in the analysis) and 0.8 ± 0.02 with hisMBP-TRIM7-CC-PRYSPRY (dimer concentrations used in the analysis for GYG1 protein). Also, the Kd with human hisTRIM7-PRYSPRY (one-site model, 25 °C, 150 mM NaCl, 50 mM Tris pH 8, 1 mM DTT, 0-1% DMSO, TRIM7 20 µM, ligand 400 µM (Ac-LQ, Ac-LLQ 800 µM; LQ 2000 µM), NB = no binding) is 2160 nM.

B2: mGYG1: recombinant full-length mouse glycogenin-1 (protein)
chain: MTDQAFVTLTTNDAYAKGALVLGSSLKQHRTTRRMVVLTSPQVSDSMRKVLETVFDDVIMVDVLDSGDSAHLTLMKRPELGITLTKLHCWSLTQYSKCVFMDADTLVLSNIDDLFEREELSAAPDPGWPDCFNSGVFVYQPSIETYNQLLHLASEQGSFDGGDQGLLNTYFSGWATTDITKHLPFVYNLSSISIYSYLPAFKAFGKNAKVVHFLGRTKPWNYTYNPQTKSVNCDSQDPTVSHPEFLNLWWDTFTTNVLPLLQHHGLVKDASSYLMMEHVSGALSDLSFGEAPAAPQPSMSSEERKERWEQGQADYMGADSFDNIKRKLDTYLQ
In assay [1], B2 came in with a Kd of 1040 nM.

B3: rbGYG1: recombinant full-length rabbit glycogenin-1 with N-terminal hexahistidine tag (protein)
chain: MTDQAFVTLTTNDAYAKGALVLGSSLKQHRTSRRLAVLTTPQVSDTMRKALEIVFDEVITVDILDSGDSAHLTLMKRPELGVTLTKLHCWSLTQYSKCVFMDADTLVLANIDDLFEREELSAAPDPGWPDCFNSGVFVYQPSVETYNQLLHVASEQGSFDGGDQGLLNTFFNSWATTDIRKHLPFIYNLSSISIYSYLPAFKAFGANAKVVHFLGQTKPWNYTYDTKTKSVRSEGHDPTMTHPQFLNVWWDIFTTSVVPLLQQFGLVQDTCSYQHVEDVSGAVSHLSLGETPATTQPFVSSEERKERWEQGQADYMGADSFDNIKKKLDTYLQ
In the case of B3, in the assay with human hisTRIM7-PRYSPRY (setting [2]), the DH was -7.271 ± 0.13 kcal/mol and the “N (stoichiometry)” value is recorded as 1.07±0.014.
